# Laboratory results reported in PubChem BioAssay AID1159607 (Small Molecule Screening Facility, UW Madison, 2016).
# The entries are a selection whose mix differs from that of the whole data set. The source made the active and inactive calls. Rule as the data show it: active = FP signal below about 40; inactive = the rest.
# Test system: RMI core complex (RMI1/RMI2) binding to FANCM MM2 peptide, human
# Experiment: disruptors of RMI1/RMI2 association with MM2 peptide – biochemical, fluorescence polarization, human, primary screen (AID 1159607)
# Conditions: RMI core complex with F-MM2 peptide, at 33 µM, stronger effect = lower value
row,Structure (SMILES),FP signal (polarization)
1,CN(CCCl)CCCl,inactive: 64
